Laboratory results: patent publication US20220251158A1, “INTERMEDIATE FILAMENT-DERIVED PEPTIDES AND THEIR USES” (UNIVERSITAT DE LLEIDA, priority 2019, published 2022)

Tests used:
[1] = tested on: human PBMC (peripheral blood mononuclear cells); experiment: Apoptosis/pyroptosis and cell death in human PBMC (annexin V/PI, Caspase-1, Caspase-3); assay type: cell-based; conditions: for induction of apoptosis and/or pyroptosis: 55 μM; for pyroptosis (comparison between peptides): Caspase-1 after 1 hour
Description: FIG. 6—Representative dot plots of apoptosis assay of human PBMC cells after culturing them with different peptides. Annexin V and PI positive cells were analysed after culturing 4×10^5 cells for 1 hour, 24 hours or 48 hours with peptide 72, or DIF-P, or DIF-P3K, or DIF-P8R or without stimulus (n=4).
(§1) FIG. 7—Representative histograms of activated (cleaved) caspase-1 positive cells from human PBMC cultured with different peptides. 4×10^5 PBMC cells were cultured with peptide 72, or DIF-P, or DIF-P3K, or DIF-P8R, or Nigericin (as a positive control) or without stimulus for an hour and activated caspase-1 was measured with 660-YVAD-FMK (n=4). Positive cell percentage is resumed on the right of the figure (*=p<0.05).
as §1, with “8—Representative” for “7—Representative”, “caspase-3” for “caspase-1”, “staurosporine” for “Nigericin”, “FAM-DEVD-FMK” for “660-YVAD-FMK”, “(*=p<0.05, **=p<0.01).” for “(*=p<0.05).”
(§2) For cell death and apoptosis analysis, 400.000 of primary cells or 100.000 of cell line cells were incubated in 96-well plates in 200 μL of complete culture medium for 24 h at 37° C. and 5% CO2 in the absence or presence of 55 μM of different peptides. After 1 hour, 24 hours or 48 hours, apoptosis was measured by CFBlue Annexin V Apoptosis Detection Kit with PI (ANXVKCFB-100T, Immunostep), following kit protocol. For cleaved caspasa-3 intracellular staining, mononuclear cells were permeabilised following the manufacturer's instructions of the FoxP3 Staining Buffer Set (00-5523-00, eBioscience) and the cleaved caspasa-3-Pacific Blue (8788S, Cell Signalling) was used for staining. Cell suspensions were analysed by flow cytometry using FACS CANTO II instrumentation (BD, Biosciences, San Jose, Calif.) and Flowjo (version 8.7) software.
Fluorescent labeled inhibitors of caspases (FLICA) probe assays were performed in order to check intracellular activation of specific caspases and confirm previously obtained flow cytometry results by cleaved caspasa-3 antibody. FLICA staining was achieved following manufacturer's instructions, as described elsewhere (Doitsh, G. et al. Cell death by pyroptosis drives CD4 T-cell depletion in HIV-1 infection. Nature 2014, 505, 509-514), after incubating cells with 55 μM of different Peripherin peptides for 1 hour or 24 hours.
(§3) The cytolytic activity (induction of apoptosis and/or pyroptosis) and production of pro-inflammatory cytokines in cell cultures have been analysed for peptides DIF-P, DIF-P3K and DIF-P8R, using peptide 72 as a negative control, in cultures of human PBMC (peripheral blood mononuclear cells). The induction of apoptosis and/or pyroptosis, and cell death was detected by flow cytometry analysis, determining the expression (presence) of annexin V in the cell membrane, and the staining of the cell nucleus with propidium iodide, respectively (FIG. 6). […] The production of pro-inflammatory cytokines (IL-6, IL-1β, TNF-α, IL-12p40, IL-23, IP-10, IFN-γ) is determined after incubation with the stimulus after 24 or 48 hours (FIG. 9).

[2] = tested on: human PBMC (peripheral blood mononuclear cells); experiment: Pro-inflammatory cytokine production by human PBMC; assay type: cell-based; conditions: for secretion of pro-inflammatory cytokines: 24 or 48 hours
Description: FIG. 9—Concentrations of different cytokines produced by human PBMC cells cultured with peptides. 4×10^5 cells were incubated per well with peptide 72, or DIF-P, or DIF-P3K, or DIF-P8R, or Staurosporine, or Nigericine or without stimulus for 24 hours or 48 hours before collecting the supernatant. In the case of Staurosporine and Nigericine the production of cytokines was only analysed after 24 hours (*=p<0.05).
(§4) Culture supernatants from mice proliferation assays were collected and IL-2, IL-4, IL-6, IFN-γ, IL-10, TNF-α and IL-17 cytokine amounts analysed by flow cytometry using CBA kit (560485, BD). For human cell cultures, the Legendplex Kit was used (BioLegend, 740502), which studied cytokines IL-12p70, TNF-α, IL-6, IL-4, IL-10, IL-1β, arginase, IL-1st, IL-12p40, IL-23, IFN-γ and IP-10.
as §3

[3] = tested on: NOD.RAG-2−/− mouse splenocytes; experiment: Cytokine release by NOD.RAG-2−/− mouse splenocytes; assay type: cell-based; conditions: NOD.RAG-2−/− splenocytes, 24 h and 48 h
Description: FIG. 1—Cytokine concentration from mouse splenocytes cultured with peptides. Results of the analysis of the supernatants of cells incubated for 24 h and 48 h with peptides 72 and DIF-P (n=4); (A) splenocytes from NOD.RAG-2−/− mice; (B) splenocytes from NOD mice.
FIG. 10—Concentrations of different cytokines produced by NOD.RAG2−/− splenocytes cultured with peptides. 4×10^5 cells were incubated per well with peptide 72, or DIF-P, or DIF-P3K, or DIF-P8R, or without stimulus for 24 hours or 48 hours before collecting the supernatant (*=p<0.05, **=p<0.01).
HL-60, Jurkat and NALM-6 cells were grown and maintained in complete culture medium in a humidified 5% CO2, atmosphere at 37° C. […] Human splenocytes from buffy coats were collected by density gradient using Histopaque 1077 (Histopaque®-1077, 10771 sigma) as described elsewhere (Johnston, L., Harding, S. A. & La Flamme, A. C. Comparing methods for ex vivo characterization of human monocyte phenotypes and in vitro responses. Immunobiology 2015, 220, 1305-1310). Cells from bone marrow were obtained disrupting femur and tibia as explained elsewhere too (Liu, X. & Quan, N. Immune Cell Isolation from Mouse Femur Bone Marrow. Bio-protocol 5, 2015). Monocytes and neutrophils from bone marrow were purified using the Stemcell kits (19861 and 19762 subsequently) and the kit protocol was followed. Cells were incubated in 96-well tissue culture plates (4×10^5/well for primary cells and 1×10^5 for cells lines) at 37° C. in 5% CO2 in complete culture medium using 55 μM of different Peripherin peptides. For proliferation assays, cells were labelled with CFSE (C34554, life technologies). After 1 hour, 24 hours or 48 hours, cells were analysed by flow cytometry and culture supernatants stored at −80° C. until use.
as §4

bone marrow cells = experiment: Apoptosis assay of NOD.RAG2−/− bone marrow cells; assay type: cell-based, mouse; conditions: bone marrow cells (FIG. 13)
Description: FIG. 13—Representative dot plots of apoptosis assay of NOD.RAG2−/− bone marrow cells after culturing them with different peptides. Annexin V and PI positive cells were analysed after culturing 4×10^5 cells for 24 hours or 48 hours with peptide 72, or DIF-P, or DIF-P3K, or without stimulus (n=4).
HL-60, Jurkat and NALM-6 cells were grown and maintained in complete culture medium in a humidified 5% CO2, atmosphere at 37° C. […] After 1 hour, 24 hours or 48 hours, cells were analysed by flow cytometry and culture supernatants stored at −80° C. until use.
as §2, with “For cleaved caspasa-3 intracellular staining, mononuclear cells were permeabilised following the manufacturer's instructions of the FoxP3 Staining Buffer Set (00-5523-00, eBioscience) and the cleaved caspasa-3-Pacific Blue (8788S, Cell Signalling) was used for staining.” left out

Row | SMILES | induction of apoptosis and/or pyroptosis [1] | pyroptosis (comparison between peptides) [1] | secretion of pro-inflammatory cytokines [2] | production of pro-inflammatory cytokines (comparison between peptides) ([2]; leukocytes that remain alive at the end of the culture) | release of TNF-α [3] | induction of apoptosis and/or pyroptosis (bone marrow cells) | release of IL-6 and IL-4 to the culture medium [3]
1 | CC[C@H](C)[C@H](NC(=O)[C@H](CCC(=O)O)NC(=O)[C@@H](NC(=O)[C@H](CC(=O)O)NC(=O)[C@H](CC(C)C)NC(=O)[C@H](C)NC(=O)[C@H](CCSC)NC(=O)[C@H](CCCCN)NC(=O)[C@@H](NC(=O)[C@H](CC(N)=O)NC(=O)[C@H](CC(C)C)NC(=O)[C@@H](N)CC(C)C)C(C)C)[C@@H](C)CC)C(=O)N[C@@H](CCCCN)C(=O)N[C@@H](CCCCN)C(=O)N[C@@H](CCCCN)C(=O)O [DIF-P3K, LLNVKMALDIEIKKK] | induce apoptosis and/or pyroptosis | significant percentage of pyroptosis compared to peptide DIF-P | induce secretion of pro-inflammatory cytokines | least efficient in inducing cytokine secretion | more efficient at inducing release of TNF-α | more efficient than peptide DIF-P | –
2 | CC[C@H](C)[C@H](NC(=O)[C@H](CCC(=O)O)NC(=O)[C@@H](NC(=O)[C@H](CC(=O)O)NC(=O)[C@H](CC(C)C)NC(=O)[C@H](C)NC(=O)[C@H](CCSC)NC(=O)[C@H](CCCCN)NC(=O)[C@@H](NC(=O)[C@H](CC(N)=O)NC(=O)[C@H](CC(C)C)NC(=O)[C@@H](N)CC(C)C)C(C)C)[C@@H](C)CC)C(=O)N[C@@H](CCCNC(=N)N)C(=O)N[C@@H](CCCNC(=N)N)C(=O)N[C@@H](CCCNC(=N)N)C(=O)N[C@@H](CCCNC(=N)N)C(=O)N[C@@H](CCCNC(=N)N)C(=O)N[C@@H](CCCNC(=N)N)C(=O)N[C@@H](CCCNC(=N)N)C(=O)N[C@@H](CCCNC(=N)N)C(=O)O [DIF-P8R] | induce apoptosis and/or pyroptosis | almost no pyroptosis | induce secretion of pro-inflammatory cytokines | – | – | more efficient than peptide DIF-P | particularly significant
